Values quoted from earlier work as cited in patent US20210155955A1, “THERAPEUTIC CONSTRUCTS FOR TREATING CANCER” (CANCER TARGETING SYSTEMS, INC., priority 2018, published 2021).

Tested on: PD-L1 and PD-L2
Details: Cheng, et al. J. Biol. Chem. 288: 11771-11785, 2013; cited from earlier work

PD-1: immunoglobulin superfamily cell surface receptor; extracellular domain proposed as decoy for PD-L1 and PD-L2
interaction between PD-1 and its ligands: weak (low μM)
